ChEMBL document CHEMBL1137205, “Rational approaches to discovery of orally active and brain-penetrable quinazolinone inhibitors of poly(ADP-ribose)polymerase” (J Med Chem, 2004)

The chains behind the UniProt entries cited, without tags or fusion partners.
UniProt P09874, whole entry: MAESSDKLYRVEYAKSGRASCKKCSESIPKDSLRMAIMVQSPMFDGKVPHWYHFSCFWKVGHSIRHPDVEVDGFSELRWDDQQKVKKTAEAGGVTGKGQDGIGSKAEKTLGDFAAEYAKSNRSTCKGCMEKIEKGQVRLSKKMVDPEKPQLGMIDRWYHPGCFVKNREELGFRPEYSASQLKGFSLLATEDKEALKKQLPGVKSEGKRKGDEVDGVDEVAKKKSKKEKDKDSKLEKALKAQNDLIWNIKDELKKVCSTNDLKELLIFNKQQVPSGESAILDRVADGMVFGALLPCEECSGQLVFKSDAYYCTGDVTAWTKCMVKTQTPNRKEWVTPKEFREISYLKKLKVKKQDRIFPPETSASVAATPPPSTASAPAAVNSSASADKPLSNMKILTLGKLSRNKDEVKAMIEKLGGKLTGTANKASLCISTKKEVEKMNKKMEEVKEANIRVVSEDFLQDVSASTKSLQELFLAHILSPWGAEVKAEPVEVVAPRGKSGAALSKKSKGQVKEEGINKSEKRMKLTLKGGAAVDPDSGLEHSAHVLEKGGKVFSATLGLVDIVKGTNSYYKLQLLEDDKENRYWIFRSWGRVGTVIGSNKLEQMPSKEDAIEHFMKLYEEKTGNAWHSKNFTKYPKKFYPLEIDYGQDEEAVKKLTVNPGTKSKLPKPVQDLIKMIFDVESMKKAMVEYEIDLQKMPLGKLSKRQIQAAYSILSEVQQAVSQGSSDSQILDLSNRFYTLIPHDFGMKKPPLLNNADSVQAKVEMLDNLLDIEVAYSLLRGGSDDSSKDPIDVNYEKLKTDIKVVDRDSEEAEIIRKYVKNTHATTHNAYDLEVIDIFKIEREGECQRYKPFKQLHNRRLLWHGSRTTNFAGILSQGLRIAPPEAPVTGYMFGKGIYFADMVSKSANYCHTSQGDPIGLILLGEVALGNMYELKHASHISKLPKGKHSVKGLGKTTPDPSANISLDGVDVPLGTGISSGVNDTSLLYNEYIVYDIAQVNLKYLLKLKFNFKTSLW

Target: Poly [ADP-ribose] polymerase 1 (Homo sapiens, UniProt P09874)
Assay: In vitro inhibitory concentration against human recombinant Poly (ADP-ribose) polymerase 1

Compound: Oc1nc(CCCN2CCN(c3ccccc3)CC2)nc2ccccc12
- IC50: 71 nM
